This note sets out measurements from patent US5869449A, “38-decarboxy-38-hydroxymethyl derivatives of teiocoplanin antibiotics and a process for preparing them” (Gruppo Lepetit S.P.A., priority 1990, dated 1999).

This is a selection: effects in other tests are not listed, and their absence says nothing.

A short description of the series: Acid-base titration (pK MCS). Format: physicochemical. The note with it: methyl cellosolve (MCS) H2O 4/1, excess 0.01M HCl, titrated with 0.01N NaOH; one basic ionizable function.

In turn, “38-Decarboxy-38-hydroxymethyl deglucoteicoplanin” came in with a pKMCS of 6.6.
